Biological target: Cholinesterase (Equus caballus, UniProt P81908)

Sequences of proteins named here, by UniProt entry; tags and fusion partners are left off.
UniProt P81908, whole entry: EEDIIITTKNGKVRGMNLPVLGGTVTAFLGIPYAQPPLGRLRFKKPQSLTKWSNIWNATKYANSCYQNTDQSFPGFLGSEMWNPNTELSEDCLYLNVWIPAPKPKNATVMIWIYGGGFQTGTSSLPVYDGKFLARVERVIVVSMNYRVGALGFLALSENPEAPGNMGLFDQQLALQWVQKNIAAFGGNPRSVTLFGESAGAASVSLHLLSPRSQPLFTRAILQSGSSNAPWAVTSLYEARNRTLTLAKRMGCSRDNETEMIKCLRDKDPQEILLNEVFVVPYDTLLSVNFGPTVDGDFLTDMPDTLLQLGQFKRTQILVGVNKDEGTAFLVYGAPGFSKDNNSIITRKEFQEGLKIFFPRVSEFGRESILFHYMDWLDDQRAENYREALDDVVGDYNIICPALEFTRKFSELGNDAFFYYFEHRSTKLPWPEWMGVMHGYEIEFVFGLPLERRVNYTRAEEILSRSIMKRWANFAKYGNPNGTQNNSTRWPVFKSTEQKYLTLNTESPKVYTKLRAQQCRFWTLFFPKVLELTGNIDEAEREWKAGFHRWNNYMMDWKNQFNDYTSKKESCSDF

## CNC(=O)Oc1ccc2c(c1)[C@]1(C)CCN(C)[C@@H]1N2C [PHYSOSTIGMINE]
  IC50: 14 nM

From ChEMBL document CHEMBL3286215, “Preparation, anticholinesterase activity and molecular docking of new lupane derivatives” (Bioorg Med Chem, 2014)
